# Measured values published in PubChem BioAssay AID1224903 (Bradner/Qi Labs at DFCI, 2016).
# By UniProt entry, the sequences of proteins in these tests, tags left out.
# UniProt O95931, whole entry: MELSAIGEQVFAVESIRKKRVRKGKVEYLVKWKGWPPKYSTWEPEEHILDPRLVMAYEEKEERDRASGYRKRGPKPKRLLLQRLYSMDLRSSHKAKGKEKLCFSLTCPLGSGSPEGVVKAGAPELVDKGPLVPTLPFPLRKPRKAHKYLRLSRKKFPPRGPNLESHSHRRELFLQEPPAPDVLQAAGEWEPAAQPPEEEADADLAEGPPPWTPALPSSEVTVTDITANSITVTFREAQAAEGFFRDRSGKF
# The entries are a selection whose mix differs from that of the whole data set. Active and inactive are the calls of the source. Cut-off read from the data, not from the text of the source: active = normalised signal below about 0.5; inactive = the rest, inconclusive results apart.
# Target: Chromobox protein homolog 7 (Homo sapiens) (UniProt O95931)
# Test: blockers of CBX7 binding to H3K27me3 peptide – biochemical, AlphaScreen, primary screen (AID 1224903)
# Settings: AlphaScreen His6-CBX7 / biotin-H3K27me3 peptide binding; hits give low values
row,Structure (SMILES),normalised signal (fraction of DMSO)
1,NC(=O)C1(Nc2ccccc2)CCN(Cc2ccccc2)CC1,inactive: 0.945
2,COc1ccc(NC2CCN(CCCC(=O)c3ccc(F)cc3)CC2)cc1,inactive: 0.632
3,O=C(CCCN1CCC(Nc2ccccc2)CC1)c1ccc(F)cc1,inactive: 0.838
4,CN1CCN(CCOC(=O)C(O)(c2ccccc2)c2ccccc2)CC1,inactive: 0.988
